# Test results published in ChEMBL document CHEMBL5625262, “Discovery and first-time disclosure of CVN766, an exquisitely selective orexin 1 receptor antagonist” (Bioorg Med Chem Lett, 2024).
# Sequences of proteins named here, by UniProt entry; tags and fusion partners are left off.
# UniProt O43613, whole entry: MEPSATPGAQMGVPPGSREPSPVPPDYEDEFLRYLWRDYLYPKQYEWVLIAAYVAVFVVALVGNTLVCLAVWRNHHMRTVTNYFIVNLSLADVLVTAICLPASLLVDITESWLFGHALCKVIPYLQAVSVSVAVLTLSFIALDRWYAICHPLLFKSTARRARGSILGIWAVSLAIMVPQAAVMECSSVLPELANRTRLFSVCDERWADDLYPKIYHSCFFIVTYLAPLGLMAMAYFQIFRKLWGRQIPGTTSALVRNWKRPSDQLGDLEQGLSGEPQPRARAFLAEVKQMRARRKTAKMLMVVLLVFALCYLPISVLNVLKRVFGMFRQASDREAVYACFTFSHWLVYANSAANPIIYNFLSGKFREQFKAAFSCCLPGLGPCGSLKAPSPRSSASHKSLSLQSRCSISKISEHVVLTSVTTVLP
# Biological target: Orexin/Hypocretin receptor type 1 (Homo sapiens, UniProt O43613)
# Assay: Displacement of 3H-SB-674042 from human Ox1R expressed in CHO cell membranes by liquid scintillation counting method
# Design: species or system Membrane
smiles,measurement,value
Cc1ccc(-n2nccn2)c(C(=O)N2CCN(c3nc4cc(Cl)ccc4o3)CC[C@H]2C)c1 [SUVOREXANT],Ki,0.676 nM
